Key:
Btk [1] = target: T1, Btk (Homo sapiens, UniProt Q06187); assay: Btk biochemical kinase assay; details: read-out: IC50apparent, Btk kinase activity
Protocol: Compound 1 is a potent, selective inhibitor of Btk. […] Because biochemical kinase assays may overestimate the potency of small molecule kinase inhibitors due to high ATP concentrations found in the cellular environment, cell activity for several of these closely related kinase family members was assessed.
Moreover, the specificity of the Btk target occupancy ELISA derives from the use of a detection monoclonal antibody that selectively recognizes Btk immobilized on the streptavidin substrate by the covalent probe and, therefore, this assay measures only Btk bound to the covalent probe (FIG. 2). By building a standard curve with known amounts of recombinant Btk protein bound to Compound 2, the amount of Btk in any sample can be precisely quantitated. Used in a competition assay, this probe detected free, uninhibited Btk and was excluded from interaction with Btk previously bonded by Compound 1 (FIG. 2). Results from this analysis can be reported in absolute values, such as the pg free Btk/ug total protein or in relative terms by normalization to control samples not exposed to inhibitor.

Amino acid sequences for entries named in this document (tags omitted). A change or cut given only in a name is not applied to a line headed by its entry.
UniProt Q06187: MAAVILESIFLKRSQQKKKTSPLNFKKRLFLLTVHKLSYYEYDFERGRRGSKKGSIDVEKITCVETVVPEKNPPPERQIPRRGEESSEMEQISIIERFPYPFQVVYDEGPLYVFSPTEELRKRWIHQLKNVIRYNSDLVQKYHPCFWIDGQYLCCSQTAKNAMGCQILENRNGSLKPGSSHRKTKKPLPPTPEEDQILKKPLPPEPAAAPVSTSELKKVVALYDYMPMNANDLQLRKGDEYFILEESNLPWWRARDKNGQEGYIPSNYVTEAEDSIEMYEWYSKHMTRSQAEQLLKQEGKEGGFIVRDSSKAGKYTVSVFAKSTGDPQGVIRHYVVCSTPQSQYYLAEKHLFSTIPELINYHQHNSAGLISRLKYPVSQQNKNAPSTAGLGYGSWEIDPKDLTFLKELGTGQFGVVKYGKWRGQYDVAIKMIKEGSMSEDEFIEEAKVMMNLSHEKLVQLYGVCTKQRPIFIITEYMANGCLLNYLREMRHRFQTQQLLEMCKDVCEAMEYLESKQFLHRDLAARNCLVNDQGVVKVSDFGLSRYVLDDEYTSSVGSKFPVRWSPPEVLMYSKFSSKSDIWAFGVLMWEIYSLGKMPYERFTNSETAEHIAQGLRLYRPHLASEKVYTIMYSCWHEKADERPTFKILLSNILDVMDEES

Btk [2] = target: T1, Btk; assay: Immunoblot of Btk signaling in α-IgM stimulated Ramos cells; assay type: cell-based; details: anti-IgM, read-out: EC50, Btk autophosphorylation on Tyr223 (cellular Btk kinase inhibition)
Protocol: Following incubation, cells were centrifuged and resuspended in 100 μL of serum-free RPMI and BCR was stimulated with addition of 5 μg/mL α-human IgM. […] Membranes were scanned on a LiCor Odyssey Scanner using infrared fluorescence detection.

Btk [3] = target: T1, Btk; assay: Btk target site occupancy ELISA, Ramos cells; assay type: cell-based; details: one hour, n=4
Protocol: Btk Target Site Occupancy ELISA: An ELISA method for the detection of free uninhibited Btk in mouse, rat, dog, monkey, and human lysates was developed at Celgene Avilomics Research and a validation of this method in human B cell lysate was performed by a CLIA Certified laboratory (Cambridge Biomedical Laboratories, Boston, Mass.) The parameters that were assessed included: accuracy, linearity, dilution, precision (intra and inter-assay), stability, reference range, freeze-thaw cycles, reportable range, specificity, sensitivity, and carryover. […] Standards and samples were transferred to a streptavidin-coated 96-well ELISA plate and mixed while shaking for 1 h at room temperature. […] After wash, goat α-mouse-HRP (1:5000 dilution in PBS+0.05% Tween-20+0.5% BSA) was added and incubated for 1 h at room temperature. The ELISA was developed with addition of tetramethyl benzidine (TMB) followed by Stop Solution and read at OD 450 nm.

C=CC(=O)Nc1cccc(Nc2nc(Nc3ccc(OCCOC)cc3)ncc2F)c1 [Compound 1, N-(3-(5-fluoro-2-(4-(2-methoxyethoxyl)phenylamino)pyrimidin-4-ylamino)phenyl)acrylamide]
IC50 (Btk [1]): < 0.5 nM | EC50 (Btk [2]): 8 nM | EC50 (Btk [3]): 6 nM
